{"source": "patent US6689807B1", "about": "“HMG CoA reductase inhibitors for promoting angiogenesis” (priority 2000, dated 2004)", "system": "Akt", "test": "Akt polypeptide kinase assay (Akt immunoprecipitated from treated HUVEC; histone H2B or eNOS peptide substrate)", "type": "cell-based, human", "conditions": "lysates of HUVEC treated with 1.0 μM simvastatin or 100 ng/ml VEGF", "experimental": "FIG. 2a depicts a representative autoradiogram of phosphorylation histone H2B (2 μg) by immunoprecipitated Akt. […] Under some conditions, cells were transfected with an adenovirus construct encoding dominant negative form of Akt1 (Ad-dnakt) 24 hours prior to drug treatment. Immunoprecipitated Akt was incubated with histone H2B (2 μg) for 30 minutes at 30° C. and reaction was terminated by adding SDS-sample buffer. Proteins were separated by SDS-PAGE and the extent of histone H2B phosphorylation was visualized by autoradiography.\nAkt was immunoprecipitated and incubated with 25 μg eNOS peptide (wild: eNOS peptide corresponding to positions including its functional site serine 1179 residue. S1179A: the mutant peptide where the serine residue phosphorylated by Akt changed to alanine). […] Results are presented as mean ±S.E.M. (n=5-7, *p<0.05).\nFor assessment of Akt polypeptide kinase activity in vitro, substrate (2 μg histone H2B or 25 μg eNOS peptide) was incubated with Akt immunoprecipitated from cell lysate using goat polyclonal anti-Akt1 antibody (Santa Cruz) as described previously. […]"}
{"substance": "VEGF", "values": [{"measurement": "Akt polypeptide kinase activity toward histone H2B", "value": "increased"}]}
